Read-outs that look alike come from different tables or passages of the source.
Experiments:
[1] = molecular target: Flt-1 (Homo sapiens, UniProt P17948); test: Flt-1 kinase inhibition; type: cell-based
[2] = molecular target: PDGFR (Homo sapiens, UniProt P09619); test: PDGFR kinase inhibition; type: cell-based; conditions: Table 4; read-out: PDGFR kinase Inhibition, apparent IC50
[3] = molecular target: Flk-1 (Homo sapiens, UniProt P35968); test: Phospho-Flk1 phosphotyrosine ELISA (cytoblot) on whole U251 glioblastoma cells; Flk1 kinase inhibition
[4] = read-out: Flk-1 kinase Inhibition, apparent IC50, Table 4, U251 cells overexpress Flk1

Amino acid sequences for entries named in this document (tags omitted). Residues count along the entry.
UniProt P17948, 27-1338, species assumed: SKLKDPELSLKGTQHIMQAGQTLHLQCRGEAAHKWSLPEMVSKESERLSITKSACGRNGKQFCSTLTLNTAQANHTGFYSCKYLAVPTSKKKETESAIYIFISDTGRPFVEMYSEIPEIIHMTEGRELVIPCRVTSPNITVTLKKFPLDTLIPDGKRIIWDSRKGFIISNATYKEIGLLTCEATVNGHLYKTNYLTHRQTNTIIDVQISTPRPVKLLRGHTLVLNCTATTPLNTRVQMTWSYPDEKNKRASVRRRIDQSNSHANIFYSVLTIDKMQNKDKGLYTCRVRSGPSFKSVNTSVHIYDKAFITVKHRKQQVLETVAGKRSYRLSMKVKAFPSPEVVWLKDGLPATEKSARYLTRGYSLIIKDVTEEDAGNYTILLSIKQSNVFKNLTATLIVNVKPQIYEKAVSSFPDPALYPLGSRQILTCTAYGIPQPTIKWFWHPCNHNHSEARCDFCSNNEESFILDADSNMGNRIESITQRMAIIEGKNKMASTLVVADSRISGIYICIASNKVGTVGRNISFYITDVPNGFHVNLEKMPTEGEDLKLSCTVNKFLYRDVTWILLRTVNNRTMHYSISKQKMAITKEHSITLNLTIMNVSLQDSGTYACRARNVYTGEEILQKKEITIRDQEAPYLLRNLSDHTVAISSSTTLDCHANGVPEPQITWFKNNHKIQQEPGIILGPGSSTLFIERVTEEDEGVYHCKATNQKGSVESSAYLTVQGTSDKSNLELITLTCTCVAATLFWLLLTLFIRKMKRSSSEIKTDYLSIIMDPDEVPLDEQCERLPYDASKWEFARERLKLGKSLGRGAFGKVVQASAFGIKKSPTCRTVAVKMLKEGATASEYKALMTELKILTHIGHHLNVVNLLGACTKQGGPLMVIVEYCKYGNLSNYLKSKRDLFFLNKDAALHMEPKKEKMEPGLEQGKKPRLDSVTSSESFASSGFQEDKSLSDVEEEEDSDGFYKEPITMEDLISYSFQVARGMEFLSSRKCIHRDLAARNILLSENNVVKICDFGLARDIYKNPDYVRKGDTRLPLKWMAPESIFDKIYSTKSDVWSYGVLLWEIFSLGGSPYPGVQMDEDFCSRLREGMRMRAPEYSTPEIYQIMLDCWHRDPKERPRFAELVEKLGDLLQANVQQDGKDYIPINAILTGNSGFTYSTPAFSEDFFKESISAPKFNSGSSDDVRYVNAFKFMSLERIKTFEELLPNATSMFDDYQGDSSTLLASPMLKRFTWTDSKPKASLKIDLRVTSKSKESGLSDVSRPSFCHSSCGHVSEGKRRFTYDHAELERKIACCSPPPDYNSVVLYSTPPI
UniProt P09619, 33-1106: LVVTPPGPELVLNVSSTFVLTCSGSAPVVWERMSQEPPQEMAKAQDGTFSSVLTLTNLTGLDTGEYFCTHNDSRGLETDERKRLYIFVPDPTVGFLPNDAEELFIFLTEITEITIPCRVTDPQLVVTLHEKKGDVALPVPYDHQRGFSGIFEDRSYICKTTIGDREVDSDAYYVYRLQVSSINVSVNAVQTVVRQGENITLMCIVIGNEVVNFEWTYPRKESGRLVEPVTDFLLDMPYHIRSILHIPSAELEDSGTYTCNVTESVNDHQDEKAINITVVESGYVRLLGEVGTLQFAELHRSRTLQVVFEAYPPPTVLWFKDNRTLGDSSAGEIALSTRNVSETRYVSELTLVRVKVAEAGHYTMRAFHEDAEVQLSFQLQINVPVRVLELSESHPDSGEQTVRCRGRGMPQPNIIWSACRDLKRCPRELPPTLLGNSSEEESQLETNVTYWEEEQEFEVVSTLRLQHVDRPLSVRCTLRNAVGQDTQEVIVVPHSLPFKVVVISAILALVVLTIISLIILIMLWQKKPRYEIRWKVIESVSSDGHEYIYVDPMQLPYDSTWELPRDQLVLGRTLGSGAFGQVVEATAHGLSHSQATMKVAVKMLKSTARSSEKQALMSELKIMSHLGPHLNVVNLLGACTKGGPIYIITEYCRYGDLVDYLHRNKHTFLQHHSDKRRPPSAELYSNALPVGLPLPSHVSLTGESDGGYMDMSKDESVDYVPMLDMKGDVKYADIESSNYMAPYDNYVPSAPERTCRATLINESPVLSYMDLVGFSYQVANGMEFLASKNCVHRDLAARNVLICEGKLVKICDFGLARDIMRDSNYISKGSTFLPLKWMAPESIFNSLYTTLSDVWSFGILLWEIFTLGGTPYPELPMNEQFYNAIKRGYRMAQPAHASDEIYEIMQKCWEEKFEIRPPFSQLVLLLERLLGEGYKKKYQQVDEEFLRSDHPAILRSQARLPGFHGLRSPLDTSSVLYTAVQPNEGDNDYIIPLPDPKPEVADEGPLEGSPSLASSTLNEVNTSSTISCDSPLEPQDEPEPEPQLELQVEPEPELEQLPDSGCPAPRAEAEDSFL
UniProt P35968, 20-1356: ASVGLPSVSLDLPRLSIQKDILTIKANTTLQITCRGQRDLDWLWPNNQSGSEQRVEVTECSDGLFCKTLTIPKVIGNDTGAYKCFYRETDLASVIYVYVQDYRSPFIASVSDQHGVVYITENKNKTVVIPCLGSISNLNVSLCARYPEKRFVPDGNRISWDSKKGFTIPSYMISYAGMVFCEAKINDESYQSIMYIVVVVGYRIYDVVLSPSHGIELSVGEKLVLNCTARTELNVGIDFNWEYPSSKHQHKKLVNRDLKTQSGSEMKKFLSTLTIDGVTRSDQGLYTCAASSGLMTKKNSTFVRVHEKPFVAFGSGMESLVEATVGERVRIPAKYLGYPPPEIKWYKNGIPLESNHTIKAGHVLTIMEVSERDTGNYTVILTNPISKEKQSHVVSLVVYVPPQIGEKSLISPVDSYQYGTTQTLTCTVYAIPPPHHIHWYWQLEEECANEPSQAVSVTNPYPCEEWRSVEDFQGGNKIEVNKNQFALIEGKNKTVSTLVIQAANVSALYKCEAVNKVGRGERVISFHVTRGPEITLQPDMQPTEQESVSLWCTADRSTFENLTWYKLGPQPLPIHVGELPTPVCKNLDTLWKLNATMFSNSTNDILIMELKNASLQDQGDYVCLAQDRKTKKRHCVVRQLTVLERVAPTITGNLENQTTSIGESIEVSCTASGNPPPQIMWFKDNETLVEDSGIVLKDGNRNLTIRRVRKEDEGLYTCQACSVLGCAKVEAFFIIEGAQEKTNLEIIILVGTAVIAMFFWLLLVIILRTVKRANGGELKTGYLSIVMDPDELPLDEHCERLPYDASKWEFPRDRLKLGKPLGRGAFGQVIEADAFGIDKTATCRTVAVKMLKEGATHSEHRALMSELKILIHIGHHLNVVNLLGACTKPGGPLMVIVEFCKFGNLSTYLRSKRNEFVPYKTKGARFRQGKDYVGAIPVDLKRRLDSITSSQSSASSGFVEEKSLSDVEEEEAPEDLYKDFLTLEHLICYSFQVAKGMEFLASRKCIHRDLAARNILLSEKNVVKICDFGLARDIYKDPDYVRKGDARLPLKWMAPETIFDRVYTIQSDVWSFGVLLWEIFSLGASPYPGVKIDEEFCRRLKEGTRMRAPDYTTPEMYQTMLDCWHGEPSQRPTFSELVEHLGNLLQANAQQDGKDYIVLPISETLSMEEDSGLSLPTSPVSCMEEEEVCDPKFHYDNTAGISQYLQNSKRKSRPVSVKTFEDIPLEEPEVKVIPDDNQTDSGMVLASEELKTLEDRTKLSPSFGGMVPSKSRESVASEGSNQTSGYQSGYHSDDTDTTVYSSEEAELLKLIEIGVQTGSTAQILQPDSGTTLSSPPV

## COc1ccc(OC)c(Cc2cc3c(Nc4cccc(Br)c4)nc(N)nc3[nH]2)c1 [YJ/AG 178]
[1]
  IC50: 31.1 µM
[2]
  IC50: 8.9 µM

## Nc1nc(Nc2cccc(Br)c2)c2cc(Cc3ccc(Cl)c(Cl)c3)[nH]c2n1 [YJ/AG 148]
[1]
  IC50: > 50 µM
[3]
  IC50: > 50 µM
[3]; [4]
  IC50: > 50 µM

## Nc1nc(Nc2cccc(Br)c2)c2cc(Cc3ccccc3)[nH]c2n1 [YJ/AG 156]
[1]
  IC50: > 50 µM
[3]
  IC50: > 50 µM

## Cc1cc2ncc(-c3ccccc3)nc2cc1C [AG1295, reference compound]
[2]
  IC50: 6.2 µM

## Nc1nc(Nc2cccc(Br)c2)c2cc(Cc3ccc4ccccc4c3)[nH]c2n1 [YJ/AG 146]
[1]
  IC50: 15.2 µM

## Nc1nc(Nc2cccc(Br)c2)c2cc(Cc3ccccc3Cl)[nH]c2n1 [YJ/AG 145]
[1]
  IC50: 26.8 µM
[3]
  IC50: 5.6 µM
[3]; read-out: FIK1 Kinase Inhibition IC50, Table 2
  IC50: 5.6 µM

## COc1cc(Cc2cc3c(Nc4cccc(Br)c4)nc(N)nc3[nH]2)cc(OC)c1OC [YJ/AG 177]
[1]
  IC50: > 50 µM
[2]
  IC50: 14.7 µM
[3]
  IC50: 9.4 µM
[3]; [4]
  IC50: 9.4 µM

## Nc1nc(Nc2cccc(Br)c2)c2cc(Cc3cccc4ccccc34)[nH]c2n1 [YJ/AG 158]
[3]
  IC50: 5.1 µM
[3]; [4]
  IC50: 5.1 µM

## Nc1nc(Nc2cccc(Br)c2)c2cc(Cc3ccc(Cl)cc3Cl)[nH]c2n1 [YJ/AG 176]
[1]
  IC50: > 50 µM
[2]
  IC50: 17 µM
[3]
  IC50: 28.1 µM
[3]; [4]
  IC50: 28.1 µM

## Nc1nc(Nc2cccc(Br)c2)c2cc(Cc3ccc(-c4ccccc4)cc3)[nH]c2n1 [YJ/AG 154]
[3]
  IC50: 6 µM
[3]; [4]
  IC50: 6 µM
